The results in this text go back to patent US20150366877A1, “METHODS OF TREATMENT OF HUMAN CYTOMEGALOVIRUS INFECTION AND DISEASES WITH BROMODOMAIN INHIBITORS” (Washington University, priority 2013, published 2015).

For experiment [1], the system named is HCMV laboratory strain AD169-GFP. Kind of experiment: microbe, parasite or virus in culture. The format is cell-based, Human cytomegalovirus. The conditions noted are these: Human betaherpesvirus 5, AD169, HFF. The protocol:
(§1) Drug effects were calculated as a percentage of reduction in GFPU in the presence of each drug concentration comported to the GFPU determined in the absence of drug. The dose-response curves were calculated using the GraphPad Prism 6 (GraphPad Software, USA),
(§2) In these experiments, the inventors determined the IC50 and IC90 values of respective BET bromodomain inhibitors against HCMV infection using fluorescence reduction assay (FIG. 9; Table 3) s.

Experiment [2] concerns HCMV clinical strain TR-GFP. Kind of experiment: microbe, parasite or virus in culture. The format is cell-based, Human cytomegalovirus. As to conditions: Human betaherpesvirus 5, HFF. The protocol: as §1, §2

Take `CCNC(=O)C[C@H]1N=C(c2ccc(Cl)cc2)c2cc(OC)ccc2-n2c(C)nnc21` [I-BET768]: the results for the half-maximal inhibitory concentration (IC50) in experiment [1] and in experiment [2] were 403 µM and 13.4 µM, respectively. Also, the 90% effect level in experiment [2] (IC90) was put at 24.6 µM.

For the molecule `CCNC(=O)C[C@@H]1N=C(c2ccc(Cl)cc2)c2cc(OC)ccc2-n2c(C)nnc21` [I-BET762, 2-[(4S)-6-(4-chlorophenyl)-8-methoxy-1-methyl-4H-[1,2,4]triazolo[4,3-a][1,4]benzodiazepine-4-yl]-N-ethylacetamide], the concentration for half-maximal inhibition (IC50) is 0.21 µM in experiment [1] and 0.14 µM in experiment [2]. The concentration for an effect of 90% (IC90) is 3.72 µM in experiment [1] and 0.22 µM in experiment [2].

As usually defined, the IC50 is the concentration that gives 50% inhibition. The term IC90 denotes the concentration at which the effect reaches the 90% level.
